Values of other authors in publication PMC4778845.

Biological target: HAP
Conditions: cited from earlier work

Substance: alpha-bungarotoxin (from UniProt P60615)
- Kd: 2 nM
